Assay results from PubChem BioAssay (NCI).
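Each compound was tested at five concentrations against cells in 96-well plates for 48 hours. TGI denotes the concentration required for complete inhibition of growth.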

Assays:
Experiment in all cases: NCI-60 cell line screen, 48 h
[1] = system: 786-0 renal
[2] = system: A498 renal
[3] = system: A549 NSCLC
[4] = system: ACHN renal
[5] = system: BT-549 breast
[6] = system: CAKI-1 renal
[7] = system: CCRF-CEM leukemia
[8] = system: COLO 205 colon
[9] = system: DU-145 prostate
[10] = system: EKVX NSCLC
[11] = system: HCC-2998 colon
[12] = system: HCT-116 colon
[13] = system: HCT-15 colon
[14] = system: HL-60(TB) leukemia
[15] = system: HOP-62 NSCLC
[16] = system: HOP-92 NSCLC
[17] = system: HS 578T breast
[18] = system: HT29 colon
[19] = system: IGROV1 ovarian
[20] = system: K-562 leukemia
[21] = system: KM12 colon
[22] = system: LOX IMVI melanoma
[23] = system: M14 melanoma
[24] = system: MALME-3M melanoma
[25] = system: MCF7 breast
[26] = system: MDA-MB-231 breast
[27] = system: MDA-MB-435
[28] = system: MDA-N
[29] = system: MOLT-4 leukemia
[30] = system: NCI-H226 lung
[31] = system: NCI-H23 lung
[32] = system: NCI-H322M lung
[33] = system: NCI-H460 lung
[34] = system: NCI-H522 lung
[35] = system: NCI/ADR-RES ovarian
[36] = system: OVCAR-3 ovarian
[37] = system: OVCAR-4 ovarian
[38] = system: OVCAR-5 ovarian
[39] = system: OVCAR-8 ovarian
[40] = system: PC-3 prostate
[41] = system: RPMI-8226 leukemia
[42] = system: RXF 393 renal
[43] = system: SF-268 CNS
[44] = system: SF-295 CNS
[45] = system: SF-539 CNS
[46] = system: SK-MEL-2 melanoma
[47] = system: SK-MEL-28 melanoma
[48] = system: SK-MEL-5 melanoma
[49] = system: SK-OV-3 ovarian
[50] = system: SN12C renal
[51] = system: SNB-19 CNS
[52] = system: SNB-75 CNS
[53] = system: SR leukemia
[54] = system: SW-620 colon
[55] = system: T-47D breast
[56] = system: TK-10 renal
[57] = system: U251 CNS
[58] = system: UACC-257 melanoma
[59] = system: UACC-62 melanoma
[60] = system: UO-31 renal

Which results are given for CN(C)CCCOC(=O)C(O)(Cc1ccccc1)c1cccc2c1OC(C)(C)C2 (stereo not given)?
TGI [1]: > 100 µM; TGI [2]: > 100 µM; TGI [3]: > 100 µM; TGI [4]: > 100 µM; TGI [5]: > 100 µM; TGI [6]: > 100 µM; TGI [7]: > 100 µM; TGI [8]: 50.4 µM; TGI [9]: > 100 µM; TGI [10]: > 100 µM; TGI [11]: 38 µM; TGI [12]: > 100 µM; TGI [13]: > 100 µM; TGI [14]: > 100 µM; TGI [15]: > 100 µM; TGI [16]: 98.7 µM; TGI [17]: > 100 µM; TGI [18]: 91.8 µM; TGI [19]: > 100 µM; TGI [20]: 81 µM; TGI [21]: > 100 µM; TGI [22]: > 100 µM; TGI [23]: 33.6 µM; TGI [24]: 48.8 µM; TGI [25]: > 100 µM; TGI [26]: > 100 µM; TGI [27]: > 100 µM; TGI [28]: > 100 µM; TGI [29]: > 100 µM; TGI [30]: > 100 µM; TGI [31]: > 100 µM; TGI [32]: > 100 µM; TGI [33]: > 100 µM; TGI [34]: > 100 µM; TGI [35]: > 100 µM; TGI [36]: > 100 µM; TGI [37]: > 100 µM; TGI [38]: > 100 µM; TGI [39]: > 100 µM; TGI [40]: > 100 µM; TGI [41]: > 100 µM; TGI [42]: > 100 µM; TGI [43]: > 100 µM; TGI [44]: > 100 µM; TGI [45]: > 100 µM; TGI [46]: > 100 µM; TGI [47]: 45.7 µM; TGI [48]: 31.5 µM; TGI [49]: > 100 µM; TGI [50]: > 100 µM; TGI [51]: > 100 µM; TGI [52]: 82 µM; TGI [53]: 42 µM; TGI [54]: > 100 µM; TGI [55]: > 100 µM; TGI [56]: > 100 µM; TGI [57]: > 100 µM; TGI [58]: 39.2 µM; TGI [59]: > 100 µM; TGI [60]: > 100 µM
